Laboratory results from PubChem BioAssay (NCATS).
Where “and” joins values, the source holds several entries; their conditions need not be identical. Equal entries are not always repeated. The entries are a selection whose mix differs from that of the whole data set. Results filed as inconclusive are left out. Calls of active or inactive are those of the source. Unless noted, the call rests on the fitted dose curve; in most records, active means well fitted curve in the direction sought with a large enough effect; inconclusive means small, poorly fitted or top-dose-only effect, or another doubt; inactive means no such curve, though single readings can be large; an effect the other way counts as inactive or inconclusive.

Tests used:
[1] = P-glycoprotein substrates identified in KB-8-5-11 adenocarcinoma cell line, qHTS therapeutic library screen (AID 1346987); details: KB-8-5-11 (P-gp overexpressing) viability, CellTiter-Glo, 72 h; at 44.5 µM (top of the series) unless noted; further: on the % scale 0 is the no-effect control and ±100 the full control effect; nearly all actives have a fitted effect of over 65% in size
[2] = molecular target: Calcium and integrin-binding protein 1 (Homo sapiens) (UniProt Q99828); experiment: Primary qHTS for Identification of Calcium Integrin Binding Protein 1 (CIB1) Competitor (AID 1508620); details: CIB1-GST / FITC-alphaIIb peptide fluorescence polarization; at 114 µM (top of the series) unless noted;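 further: GST tagged CIB1 binding a fluorescein labelled alphaIIb integrin peptide tracer; top concentration of the series differs between compounds; on the % scale 0 is the no-effect control and ±100 the full control effect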
[3] = molecular target: Phospholipid hydroperoxide glutathione peroxidase GPX4 (Homo sapiens) (UniProt P36969); experiment: Primary qHTS Assay for Inhibitors of Recombinant Selenoprotein Glutathione Peroxidase 4 (GPX4) (AID 1845192); details: recombinant GPX4, GR-coupled NADPH fluorescence, 15 min; activity change, negative = inhibition: at 50 µM (top of the series); further: on the % scale 0 is the no-effect control and ±100 the full control effect; nearly all actives have a fitted effect of over 65% in size
How it was run: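 NADPH consumption, followed by fluorescence at 340/450 nm between 0 and 15 min, reports GPX4 activity via coupled glutathione reductase (100 nM). Enzyme 200 nM was pre-exposed to compound 30 min; 0.5 mM cumene hydroperoxide and 1 mM GSH served as substrates.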

[4] = molecular target: Luciferin 4-monooxygenase (Photinus pyralis) (UniProt P08659); experiment: Primary firefly luciferase (FLuc) qHTS assay for identification of artifact compounds. (AID 1845220); details: purified firefly luciferase, luminescence, 5 min; activity change, negative = inhibition: at 54.1 µM (top of the series); further: nearly all actives have a fitted effect of over 60% in size
How it was run: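 Compounds sat 15 min at room temperature with 10 uM luciferin and 10 uM ATP (pH 7.6 Tris acetate). Firefly luciferase (10 nM final) was then added, and luminescence was read 5 min later. Data normalized to no-enzyme and DMSO controls were Hill-fitted.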

[5] = Primary fluorescence-based thiol-reactive (MSTI) qHTS assay for identification of artifact compounds. (AID 1845221); details: MSTI thiol-reactivity probe, 1 h; at 53.8 µM (top of the series);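 further: thiol-reactive compounds lower the probe fluorescence signal; nearly all actives have a fitted effect of over 65% in size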
How it was run: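 qHTS titration of compound; 4 uM MSTI, PBS pH 7.4, 2% DMSO; 1 h RT, dark; fluorescence 525/598 nm; normalized to Acetyl-MSTI and MSTI; 4-parameter Hill fit.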

[6] = tested on: Nanoluciferase (engineered Oplophorus gracilirostris luciferase); experiment: Primary Nanoluciferase (NLuc) qHTS assay for identification of artifact compounds. (AID 1845222); details: NLuc-conditioned medium, Nano-Glo luminescence, 5 min; at 54.1 µM (top of the series);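 further: 0% = DMSO and -100% = no enzyme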
How it was run: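 Luminescence from secreted NLuc (filtered, 1:55-diluted S16 cell medium) read 5 min after Nano-Glo substrate; compounds preincubated 15 min, RT. Hill fits of inhibition normalized to DMSO and no-enzyme.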

[7] = Primary redox qHTS assay for identification of artifact compounds. (AID 1845223); details: Amplex Red/HRP redox cycling with DTT, fluorescence; at 53.8 µM (top of the series);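 further: 0% = DMSO and 100% = reference compound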
How it was run: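 Amplex Red (25 uM) and HRP (250 mU/mL) in HBSS, with compounds for 15 min, then 250 uM DTT for 30 min, room temperature, dark. Fluorescence 525/598 nm read; normalized to DMSO and 10 uM DA3003; Hill fit.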

[8] = tested on: CRL-7250; experiment: Cytotoxic Profiling of Annotated Libraries Using Quantitative High-Throughput Screening (AID 1296008); details: Five cell lines viability, CellTiter-Glo ATP luminescence, 48-72 h; stronger effect = lower value; further: nearly all actives have a fitted effect of over 60% in size
[9] = tested on: HEK293; experiment: as above; details: Five cell lines viability, CellTiter-Glo ATP luminescence, 48-72 h; max response: stronger effect = lower value
[10] = tested on: HaCat; experiment: as above; details: Five cell lines viability, CellTiter-Glo ATP luminescence, 48-72 h; stronger effect = lower value
[11] = tested on: KB-3-1; experiment: as above; details: Five cell lines viability, CellTiter-Glo ATP luminescence, 48-72 h, stronger effect = lower value
[12] = tested on: NIH3T3; experiment: as above; details: Five cell lines viability, CellTiter-Glo ATP luminescence, 48-72 h; stronger effect = lower value
[13] = tested on: NIH3T3; experiment: qHTS assay to identify novel small-molecules to repurpose for Merkel cell carcinoma treatment (AID 1296009); details: MCC and control cell lines, CellTiter-Glo viability, 72 h; at 44.8 µM (top of the series); further: nearly all actives have a fitted effect of over 60% in size
[14] = AP1 Signaling Pathway (AID 357; active means well fitted curve in either direction with a large enough effect, not every such curve was filed as active; further: on the % scale 0 is the no-effect control and ±100 the full control effect); details: ME-180 AP-1-bla reporter, EGF-induced, beta-lactamase ratio, 5 h; at 7.69 µM (top of the series) unless noted
How it was run: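 ME-180 cells with beta-lactamase reporter under AP-1 response element, stimulated with EC50 EGF; compounds tested in titration series, 5 h at 37 °C. CCF4 substrate added 2.5 h at room temperature; 460/530 nm emission ratio gave %activity and AC50.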

[15] = NFAT Signaling Pathway (AID 444; active means well fitted curve in either direction with a large enough effect, not every such curve was filed as active;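 further: carbachol stimulus at about its EC50 of 1 µM final; on the % scale 0 is the no-effect control and ±100 the full control effect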); details: Jurkat NFAT-bla M1, carbachol, beta-lactamase ratio, 5 h; at 7.69 µM (top of the series) unless noted
[16] = molecular target: Guanine nucleotide-binding protein G(i) subunit alpha-1 (Homo sapiens) (UniProt P63096); experiment: qHTS Assay for Inhibitors of RGS12 GoLoco Motif Activity (Green Fluorophore) (AID 879); details: Galphai1/FITC-RGS12 GoLoco peptide, fluorescence polarization; at 57.1 µM (top of the series);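 further: 0% = labeled peptide with Gαi1 and full inhibition = labeled peptide alone without protein; negative values mean loss of peptide binding seen as reduced polarization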
How it was run: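 Fluorescence polarization assay: 50 nM Gαi1 with 10 nM FITC-labeled RGS12 GoLoco peptide in 10 mM Tris pH 7.5, 150 mM NaCl, 0.1 mM GDP, 0.05% NP40, 10 min at room temperature with compound.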

[17] = qHTS Assay for Identification of Small Molecule Agonists for Thrombopoietin (TPO) Signaling Pathway (AID 917); details: TPO signaling pathway reporter cells, agonist qHTS, stimulated with TPO at its EC50; at 38.5 µM (top of the series); further: on the % scale 0 is the no-effect control and ±100 the full control effect
[18] = molecular target: Alpha-galactosidase A (Homo sapiens) (UniProt P06280); experiment: Counterscreen for Glucocerebrosidase Inhibitors: qHTS Assay for Human alpha-Galactosidase at pH 4.5 (AID 992); details: purified enzyme, fluorogenic substrate; at 76.9 µM (top of the series); further: 0% is about no effect
How it was run: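 Read-out is 4-methylumbelliferone fluorescence (365 nm excitation, 440 nm emission) after a pH 10 NaOH/glycine stop. Reactions held 2 nM enzyme and 80 uM substrate at pH 4.5 for 20 min at room temperature.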

[19] = molecular target: alpha-glucosidase (Oryza sativa, rice) (UniProt Q653V4); experiment: Counterscreen for Glucocerebrosidase Inhibitors: qHTS Assay for Rice alpha-Glucosidase at pH 5.0 (AID 997); details: rice alpha-glucosidase enzyme activity; at 76.9 µM (top of the series);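 further: 0% = full activity with enzyme and -100% = basal without enzyme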
How it was run: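 Rice alpha-glucosidase (4 nM final) with 400 uM 4-methylumbelliferyl-alpha-D-glucopyranoside in citrate buffer pH 5.0, 20 min at room temperature, stopped at pH 10; fluorescence 365/440 nm, compounds 0.7 nM–77 uM, AC50 from Hill fits.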

[20] = Validation of Assay for Modulators of Lamin A Splicing (AID 1459; active means well fitted curve in the direction sought with a large enough effect in the signal ratio; the % refers to the signal ratio;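 further: cells exposed to compound for two days before reading; 0% is about no effect; ratio rise marks activators and ratio drop marks inhibitors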); details: Lamin A splicing dual RFP/GFP fluorescence reporter; at 9.22 µM (top of the series)
How it was run: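 Splicing correction read as GFP (500-530 nm) over DsRed2 (575-640 nm) object intensity after 48 h compound exposure of reporter HeLa S3 clones (600 cells/well, 2% FBS medium); ancitabine and cycloheximide titrations, 0.5% DMSO as vehicle.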

[21] = molecular target: DNA repair nuclease/redox regulator APEX1 (Homo sapiens) (UniProt P27695); experiment: qHTS Validation Assay for Inhibitors of the Human Apurinic/apyrimidinic Endonuclease 1 (APE1) (AID 1705); details: purified APE1 endonuclease activity, fluorescence, titration; at 57.1 µM (top of the series)
How it was run: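 Activity read as rising fluorescence (598 nm emission, 525 nm excitation) from incision of a TAMRA/BHQ-2 duplex carrying a THF abasic site (50 nM). Compound and enzyme sat 15 min at RT before substrate start; signal change between first and third 60-s reads.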

[22] = Counterscreen for APE1 Inhibitors: Fluorescent Dye Displacement Validation Assay (AID 1707); details: fluorescent dye displacement from DNA; at 57.1 µM (top of the series);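 further: plate controls were ThO with dsDNA and no compound for no effect and ThO without dsDNA for full effect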
How it was run: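 ThO 250 nM + dsDNA 50 nM (THF abasic site, 5'-TAMRA), Tris-HCl pH7.5/50mM NaCl/2 mM MgCl2/0.01% Tween-20; compounds pin-transferred; ex 480/em 540 nm endpoint. Neutral = no compound; no-DNA ThO wells = negative control.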

[23] = molecular target: ATP-dependent DNA helicase Q1 (Homo sapiens) (UniProt P46063); experiment: qHTS Validation Assay for Inhibitors of RecQ-Like Dna Helicase 1 (RECQ1) (AID 2353); details: recombinant RECQ1 helicase DNA unwinding assay; at 25.6 µM (top of the series);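 further: plate controls were DMSO vehicle for no effect and enzyme-free control for full effect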
How it was run: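 50 nM RECQ1T1 preincubated 15 min with compound in Tris pH 8.0 buffer with MgCl2, DTT, Tween-20 and 2.5 ug/ml poly(dI-dC); started with 200 nM TAMRA/BHQ-2 forked duplex and 2 mM ATP. Unwinding read as fluorescence (525/598 nm), two reads 2 h apart.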

[24] = molecular target: RecQ-like DNA helicase BLM (Homo sapiens) (UniProt P54132); experiment: qHTS Validation Assay for Inhibitors of Bloom's syndrome helicase (BLM) (AID 2364); details: BLM helicase DNA unwinding, fluorescence, in vitro; at 57.1 µM (top of the series);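 further: plate controls were DMSO vehicle for no effect and enzyme-free control for full effect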
[25] = Validation screen for small molecules that induce DNA re-replication in MCF 10A normal breast cells (AID 463097); details: MCF 10A cells, DNA re-replication phenotype imaging; at 46.1 µM (top of the series); further: 0% is about no effect; nearly all actives have a fitted effect of over 60% in size
How it was run: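 Read-out is Hoechst total nuclear intensity by fluorescence scanning imager, flagging increased high-DNA-content nuclei. Compounds were incubated with MCF 10A cells for 48 hr (37 C, 5% CO2) before 40 min staining.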

[26] = molecular target: Thyrotropin-releasing hormone receptor (Homo sapiens) (UniProt P34981); experiment: qHTS for Small Molecule Agonists and Allosteric Enhancers of Human TRH Receptor: Validation Screen for Agonists (AID 493127;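 active means calcium activation more than 3 SD above the typical response in the agonist read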;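 further: intracellular calcium rise by fluo-8 fluorescence before TRH EC20 addition; 0% is about no effect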); details: TRH receptor agonist cell assay; at 2 µM; stronger effect = higher value
How it was run: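 Gq-coupled calcium mobilization in TRHR cells after compound addition, monitored kinetically with fluo-8 dye on an FDSS reader.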

[27] = molecular target: Galactokinase (Homo sapiens) (UniProt P51570); experiment: qHTS Validation Assay for Inhibitors of Human Galactokinase (GALK) (AID 493189); details: purified human GALK enzyme activity, qHTS 7-point titration; at 57.5 µM (top of the series); further: 0% is about no effect
How it was run: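 Inhibition was measured as remaining ATP, detected by luciferase luminescence after a 1 h room-temperature reaction. Final conditions: 5 nM GALK, 100 uM galactose, 35 uM ATP, pH 8.0 HEPES buffer.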

[28] = Validation screen for small molecules that induce DNA re-replication in SW480 colon adenocarcinoma cells (AID 504364); details: DNA re-replication phenotype (high-content imaging); at 46.1 µM (top of the series); further: 0% is about no effect
How it was run: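 Cells are treated 48 hr with test compound, stained 40 min with Hoechst at 37 C, and scanned for nuclear fluorescence; compounds inducing re-replication increase nuclei with elevated intensity.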

[29] = Stat Signaling Pathway (AID 446; active means well fitted curve in either direction with a large enough effect, not every such curve was filed as active); details: ME-180 (cervical carcinoma) SIE beta-lactamase reporter, IL-6 stimulated, 5 h; at 7.69 µM (top of the series) unless noted
How it was run: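 IL-6/STAT signaling read in ME-180 cells via an SIE beta-lactamase reporter. Stimulus was 40 pM IL-6 (its AC50) for 5 hrs, so both activation and inhibition register.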

[30] = molecular target: Mitogen-activated protein kinase 10 (Mus musculus) (UniProt Q61831); experiment: JNK3 AlphaScreen Assay (AID 530; active means well fitted curve in either direction with a large enough effect, not every such curve was filed as active); details: JNK3 lysate, c-Jun phosphorylation; at 11.4 µM (top of the series) unless noted
How it was run: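 Room-temperature AlphaScreen kinase assay; pre-activated HepG2 lysate as JNK3 source, biotin-GST-cJun(1-79) substrate, 10 uM ATP, compound 15 min preincubation.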

[31] = molecular target: 3',5'-cyclic-AMP phosphodiesterase 4B (Homo sapiens) (UniProt Q07343); experiment: qHTS Assay for Inhibitors of PDE-IV (AID 607; active means well fitted activation curve with a large enough effect in the main read-out, with a control signal flat, not every such curve was filed as active; further: % of control where 0% means no effect); details: HEK293 ACTOne CNG channel cells, membrane potential fluorescence; at 22.9 µM (top of the series)
How it was run: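 Live HEK293 cells with a modified cyclic nucleotide-gated (CNG) channel report intracellular cAMP via membrane-potential dye fluorescence (ex 535/em 590 nm). Endogenous PDE-IV was targeted. Compounds were tested at up to 22.9 uM final; RO 20-1724 100 uM served as control.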

CN(C(=O)Cc1ccc(Cl)c(Cl)c1)[C@H]1CCCC[C@H]1N1CCCC1
inactive: activity change, negative = cytotoxicity [1] -8.53% | activity change, negative = inhibition [2] 4.47% | activity change, negative = inhibition [3] 7.85% | outcome [4] | activity change, negative = thiol reactive [5] 25.8% | activity, negative = inhibition [6] -0.53% | redox activity (% of DA3003) [7] 1.28% | max response [8] -18.9% | max response [9] -117% | max response [10] -22% | max response [11] 1.19% | outcome [12] inactive; activator | outcome [13] inactive; activator

CN(C(=O)Cc1ccc(Cl)c(Cl)c1)[C@@H]1CCCC[C@H]1N1CCCC1
inactive: activity change, negative = inhibition [14] 12% [at 38 µM] [middle of 4 runs] | activity change, negative = inhibition [15] -24.9% [at 38 µM] and -25.8% [at 38 µM] and -25.5% [at 38 µM] | activity, negative = inhibition [16] 2.12% [middle of 4 runs] | activity, positive = activation [17] 0.417% [middle of 4 runs] | activity change, negative = inhibition [18] -4.4% [middle of 4 runs] | activity change, negative = inhibition [19] -3.22% [middle of 4 runs] | ratio change, both ways [20] -12.9% | activity change, negative = inhibition [21] 1.51% | activity change, negative = inhibition [22] 0.28% | activity change, negative = inhibition [23] -1.57% | activity change, negative = inhibition [24] -2.97% | re-replication induction [25] 0.0327% | activation [26] -0.125% | activity change, negative = inhibition [27] -0.819% | activity (re-replication induction) [28] 14.1%

NS(=O)(=O)Cc1ccc([As](=O)(O)O)cc1
inactive: activity change, negative = inhibition [14] 1.04% | activity change, negative = inhibition [15] 7.72% | activity, negative = inhibition [29] -6.51% | activity change, negative = inhibition [30] 3.99% | activation (PDE inhibition) [31] -2.63%
